Source: ChEMBL document CHEMBL1127788, “Iodinated 2-aminotetralins and 3-amino-1-benzopyrans: ligands for dopamine D2 and D3 receptors” (J Med Chem, 1994)

By UniProt entry, the sequences of proteins in these tests, tags left out.
UniProt P35462, whole entry: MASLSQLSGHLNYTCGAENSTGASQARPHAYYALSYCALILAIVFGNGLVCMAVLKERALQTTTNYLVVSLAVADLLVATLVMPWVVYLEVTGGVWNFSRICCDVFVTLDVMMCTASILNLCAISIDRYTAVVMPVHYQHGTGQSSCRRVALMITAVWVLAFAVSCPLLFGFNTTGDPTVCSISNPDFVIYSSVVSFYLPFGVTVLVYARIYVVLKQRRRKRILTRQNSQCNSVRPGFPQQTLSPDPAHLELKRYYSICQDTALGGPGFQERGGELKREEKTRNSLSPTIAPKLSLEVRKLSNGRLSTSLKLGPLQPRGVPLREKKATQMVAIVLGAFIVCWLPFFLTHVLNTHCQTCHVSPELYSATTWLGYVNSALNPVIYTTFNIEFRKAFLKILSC

Molecular target: D(3) dopamine receptor (Homo sapiens, UniProt P35462)
Assay: Tested for the inhibitory activity against Dopamine D3 receptor in infected Sf9 cells
Type: cell-based
In short: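 Membranes from Sf9 cells infected with AcMNPVrD3, in 50 mM Tris pH 7.4 with 120 mM NaCl, protease inhibitors and BSA 1 mg/mL. Displacement of 0.1 nM [125I]-NCQ298 by drug up to 10^-5 M, 30 min at 37 °C. Nonspecific binding: 10 μM (+)butaclamol or 1 μM 7-OH-DPAT. Filtration onto PEI-soaked glass fiber, γ counting, LIGAND nonlinear fit.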

CCCN(C/C=C/I)C1CCc2ccc(O)cc2C1 (stereo unspecified)
Ki: 1.85 nM
